One molecule from patent US12042560B2, “Liposome composition” (Eisai R&D Management Co., Ltd., priority 2009, dated 2024) can be followed below.

By pKa is commonly meant the negative logarithm of the acid dissociation constant. Low readings indicate a group that gives up its proton readily, high ones a group that holds its proton tightly.

This data set in a line: physchem.

Structures can show the parent of a compound that is named as a salt.

Consider `C=C1C[C@@H]2CC[C@@]34C[C@H]5O[C@H]6[C@@H](O3)[C@H]3O[C@H](CC[C@@H]3O[C@H]6[C@H]5O4)CC(=O)C[C@@H]3[C@@H](OC)[C@@H](C[C@H](O)CN)O[C@H]3C[C@H]3O[C@@H](CC[C@@H]1O2)C[C@@H](C)C3=C` [Eribulin mesylate, eribulin mesylate], for which the pKa was 9.6.
